The chains behind the UniProt entries cited, without tags or fusion partners.
UniProt P30411, whole entry: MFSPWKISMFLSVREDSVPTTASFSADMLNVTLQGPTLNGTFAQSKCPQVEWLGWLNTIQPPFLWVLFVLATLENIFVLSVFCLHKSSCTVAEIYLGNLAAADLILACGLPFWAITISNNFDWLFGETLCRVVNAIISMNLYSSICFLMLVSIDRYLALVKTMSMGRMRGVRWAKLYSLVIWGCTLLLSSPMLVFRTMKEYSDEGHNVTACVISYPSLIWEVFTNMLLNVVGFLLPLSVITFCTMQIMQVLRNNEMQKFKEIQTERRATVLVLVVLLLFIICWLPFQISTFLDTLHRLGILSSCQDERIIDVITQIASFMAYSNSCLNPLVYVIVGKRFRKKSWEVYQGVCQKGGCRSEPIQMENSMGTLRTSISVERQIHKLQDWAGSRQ

In patent US20090227601A1, “Bradykinin 1 Receptor Antagonists” (Amgen Inc., priority 2005, published 2009):

Target: hB2 receptor (Homo sapiens, UniProt P30411)
Assay: In vitro Assay of hB2 Receptor Function using Calcium Flux
Assay type: cell-based
Conditions: read-out: Data (um), recombinant CHO cells, antagonist IC50 against agonist at EC80

Compound `Cc1ccc(S(=O)(=O)N2C=CNC(=O)[C@H]2CC(=O)N2CCC(c3ccc(C(F)(F)F)cc3)CC2)cc1` has an IC50 of 0.85 µM.
For `Cc1ccc(S(=O)(=O)N2C=CNC(=O)[C@H]2CC(=O)NC2CCCCC2(C)O)cc1` (some centres unmarked), the IC50 was 0.42 µM.
